Target: Proto-oncogene tyrosine-protein kinase receptor Ret (Homo sapiens, UniProt P07949, V804L)
Format: organism-based

Protein sequences, listed by entry. Tags and fused reporters are not part of them. Residues count along the entry.
UniProt P07949, 29-1114 V804L limits assumed: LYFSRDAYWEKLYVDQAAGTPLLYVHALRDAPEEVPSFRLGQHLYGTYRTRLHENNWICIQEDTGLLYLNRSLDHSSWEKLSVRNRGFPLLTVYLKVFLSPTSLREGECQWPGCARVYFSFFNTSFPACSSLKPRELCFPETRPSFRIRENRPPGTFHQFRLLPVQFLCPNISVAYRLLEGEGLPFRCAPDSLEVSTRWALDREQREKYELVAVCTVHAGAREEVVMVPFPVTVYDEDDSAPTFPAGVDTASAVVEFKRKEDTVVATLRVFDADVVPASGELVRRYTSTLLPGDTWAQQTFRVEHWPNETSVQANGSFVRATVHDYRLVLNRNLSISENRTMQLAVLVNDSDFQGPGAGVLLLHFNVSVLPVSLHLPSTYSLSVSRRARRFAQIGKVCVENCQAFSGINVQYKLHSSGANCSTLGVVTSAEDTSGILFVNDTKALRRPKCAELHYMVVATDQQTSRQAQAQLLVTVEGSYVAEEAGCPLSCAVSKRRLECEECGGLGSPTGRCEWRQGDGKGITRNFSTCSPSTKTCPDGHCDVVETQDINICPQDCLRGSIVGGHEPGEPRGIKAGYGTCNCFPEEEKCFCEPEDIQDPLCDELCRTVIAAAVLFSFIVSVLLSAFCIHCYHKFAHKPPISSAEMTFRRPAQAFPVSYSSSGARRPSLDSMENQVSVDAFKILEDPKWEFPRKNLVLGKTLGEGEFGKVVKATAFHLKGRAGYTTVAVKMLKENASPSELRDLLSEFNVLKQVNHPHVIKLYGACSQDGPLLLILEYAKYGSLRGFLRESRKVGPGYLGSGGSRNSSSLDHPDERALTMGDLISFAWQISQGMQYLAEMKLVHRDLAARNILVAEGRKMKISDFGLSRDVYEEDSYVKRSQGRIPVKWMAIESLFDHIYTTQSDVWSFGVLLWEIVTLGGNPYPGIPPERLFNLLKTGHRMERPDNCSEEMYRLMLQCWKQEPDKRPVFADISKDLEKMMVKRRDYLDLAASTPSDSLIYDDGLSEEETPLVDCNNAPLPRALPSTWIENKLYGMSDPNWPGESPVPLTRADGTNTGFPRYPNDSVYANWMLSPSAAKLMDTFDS

In the case of `Cc1cc(Nc2cc(C)[nH]n2)nc(-c2ccc(C(=O)NCc3ccc(OC(F)(F)F)cc3)nc2)n1`, the IC50 is reported as > 100 nM.

From ChEMBL document CHEMBL5726467, “2-(pyridin-3-yl)-pyrimidine derivatives as RET inhibitors” (2019)
